Literature values, collected in patent US20230094545A1, “S1P RECEPTOR MODULATORS” (AKAAL PHARMA PTY LTD, priority 2020, published 2023).

Chains of the proteins cited; added tags and fusions are not shown.
UniProt P21453, whole entry: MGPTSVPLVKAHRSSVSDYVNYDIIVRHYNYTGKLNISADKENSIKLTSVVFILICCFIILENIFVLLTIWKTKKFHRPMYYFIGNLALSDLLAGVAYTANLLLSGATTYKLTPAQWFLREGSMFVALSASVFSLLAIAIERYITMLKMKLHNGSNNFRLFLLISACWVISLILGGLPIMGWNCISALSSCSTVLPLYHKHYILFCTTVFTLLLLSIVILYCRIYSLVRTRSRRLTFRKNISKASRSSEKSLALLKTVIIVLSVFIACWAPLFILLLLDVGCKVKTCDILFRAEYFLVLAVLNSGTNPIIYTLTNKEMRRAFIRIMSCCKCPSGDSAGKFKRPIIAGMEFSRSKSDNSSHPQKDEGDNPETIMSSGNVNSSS

Biological target: S1P1 receptor (Homo sapiens, UniProt P21453)
Conditions: Lucas et al; read-out: EC50 at S1P1 receptor in a GTPγS assay; cited from earlier work

For `CCCCCCCCc1ccc(CCC(N)(CO)CO)cc1` [FTY720], the EC50 is given as 2 nM.
